In patent publication US20070134793A1, “REDIFFERENTIATION MEDIUM FOR MAKING DEDIFFERENTIATED CHONDROCYTE TO BE REDIFFERENTIATED INTO CHONDROCYTE” (priority 2004, published 2007):

Tested on: dedifferentiated chondrocyte (P4, derived from human auricular cartilage)
Test: Study of preferable amount of each component in the redifferentiation medium (type II collagen expression)
Assay type: cell-based
Details: BMP-2 400, 200, 100 ng/mL compared; insulin 5 μg/mL, T3 10^-7 M
Experimental: Preferable ranges of the contents of insulin, BMP-2 and T3 in the medium for redifferentiating the dedifferentiated chondrocyte into the chondrocyte in Example 2 containing insulin, BMP-2 and T3 were elucidated by the following three comparisons.
First, when the contents of BMP-2 were changed to 400 ng/mL, 200 ng/mL and 100 ng/mL, respectively, with a content of insulin of 5 μg/mL and a content of T3 of 10^-7 M, the expression amount of type II collagen was the largest when the content of BMP-2 was 200 ng/mL (FIG. 5).
Second, when the contents of T3 were changed to 10^-6 M, 10^-7 M and 10^-8 M, respectively, with a content of insulin of 5 μg/mL and a content of BMP-2 of 200 ng/mL, the expression amount of type II collagen was the largest when the content of T3 was 10^-7 M (FIG. 6).
Third, the contents of insulin were changed to 50 μg/mL, 5 μg/mL and 0.5 μg/mL, respectively, with a content of BMP-2 of 200 ng/mL and a content of T3 of 10^-7 M, the expression amount of type II collagen was the largest when the content of insulin was 5 μg/mL (FIG. 7).

B1: BMP-2: human recombinant bone morphogenetic protein-2, manufactured by Yamanouchi Pharmaceutical Co. (protein, UniProt P12643 283-396, looked up)
Bone morphogenetic protein 2: QAKHKQRKRLKSSCKRHPLYVDFSDVGWNDWIVAPPGYHAFYCHGECPFPLADHLNSTNHAIVQTLVNSVNSKIPKACCVPTELSAISMLYLDENEKVVLKNYQDMVVEGCGCR
content of BMP-2 at which the expression amount of type II collagen was the largest: 200 ng/mL
